{"sequences": {"note": "The chains behind the UniProt entries cited, without tags or fusion partners.", "UniProt P21554, whole entry": "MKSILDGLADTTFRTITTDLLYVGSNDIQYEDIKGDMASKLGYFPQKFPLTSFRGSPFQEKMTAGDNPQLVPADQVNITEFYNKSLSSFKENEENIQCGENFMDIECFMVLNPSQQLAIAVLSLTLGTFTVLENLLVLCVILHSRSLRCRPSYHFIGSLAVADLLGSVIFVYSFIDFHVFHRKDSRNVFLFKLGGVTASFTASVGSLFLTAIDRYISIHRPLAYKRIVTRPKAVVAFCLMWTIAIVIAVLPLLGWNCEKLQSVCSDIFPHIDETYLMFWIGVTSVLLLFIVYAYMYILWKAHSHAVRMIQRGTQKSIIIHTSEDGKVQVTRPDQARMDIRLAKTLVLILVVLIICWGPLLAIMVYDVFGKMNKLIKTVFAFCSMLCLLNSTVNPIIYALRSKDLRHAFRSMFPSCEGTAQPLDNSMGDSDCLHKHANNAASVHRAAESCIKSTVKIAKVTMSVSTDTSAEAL"}, "source": "paper PMC4283194", "about": "(Neuroimage, 2014)", "key": {"CB1 receptor [1]": {"molecular_target": "T1, CB1 receptor (Homo sapiens, UniProt P21554)", "conditions": "SRTM; for ICC of BPND / Median % diff (test–retest) of BPND / Median BPND / Mean %BS-CV of BPND: pons pseudo-reference"}, "CB1 receptor [2]": {"molecular_target": "T1, CB1 receptor", "assay": "[11C]MePPEP PET, VT by classic spectral analysis on ROI data (SA-ROIs)", "assay_type": "in vivo", "parameters": "assess the stability of CB1-receptor quantification in humans in vivo; from tissue; host or cells: living human brain (healthy volunteers), in vivo PET; VT median: unit not given beside the values", "method": "(§1) Continuous and intermittent blood samples were collected to allow the subsequent generation of metabolite-corrected arterial plasma time–activity curves (TACs) ([Hammers et al., 2008]). During the first 15 min blood was withdrawn continuously at a rate of 300 ml/h and radioactivity measured in a BGO detection system ([Jones et al., 1994]). To quantify plasma and whole blood radioactivity, as well as to allow quantification of the parent fraction of the radiotracer, intermittent discrete (10 ml) samples were taken with heparinised syringes before the scan (baseline) and at the following time points after scan start: 3, 5, 10, 15, 20, 30, and 50 min. At 75 min, a larger 17 ml sample was taken to allow quantification despite radioactivity decay. […] Continuous plasma input functions (IF) were derived by cross-calibration and combination of the continuous and discrete data, multiplication with the fitted plasma-over-blood ratio, and correction for parent radiotracer fraction, as described in detail in previous studies ([Hammers et al., 2007a], [Jones et al., 1994]).\nVolumes of distribution (VTs) ([Innis et al., 2007]) for each ROI were obtained from the dynamic images and the metabolite-corrected IFs using spectral analysis (SA) ([Cunningham and Jones, 1993], [Cunningham et al., 1993], [Turkheimer et al., 1994]). The fast frequency boundary was kept at the default value of 0.1 s^− 1. […] Based on previous work with another tracer with relatively slow kinetics ([Hammers et al., 2007a]), we changed this to 0.00063 s^− 1 (log10 = − 3.20) in order to reduce noise."}, "CB1 receptor [3]": {"molecular_target": "T1, CB1 receptor", "assay": "[11C]MePPEP PET, VT by reversible two-compartment model with variable blood volume (2kbv)", "assay_type": "in vivo", "parameters": "assess the stability of CB1-receptor quantification in humans in vivo; from tissue; host or cells: living human brain (healthy volunteers), in vivo PET", "method": "as §1\nIn this model, three microparameters are derived: K1 is the influx of the ligand from the plasma to the tissue compartment containing free, non-specifically bound, and specifically bound ligand, k2 is the efflux constant from the ROI back to plasma ([Cunningham et al., 1991], [Huang et al., 1980]), and bv is a variable blood volume term. VT is then calculated according to the compartmental model equation ([Watabe et al., 2006]):(1) VT=K1/k2."}}, "note": "Values joined by “and” are separate entries in the source; they are usually repeats but may differ in a detail not shown here. Equal entries are not always repeated. Where two headings read alike, the source gives them in different places.", "data": [{"smiles": "COc1cccc([C@H]2C[C@@H](N[C@H](C)c3ccccc3)C(=O)N2c2ccc(C(F)(F)F)cc2)c1", "note": "[[^11C]MePPEP, (3R,5R)-5-(3-methoxy-phenyl)-3-((R)-1-phenyl-ethylamino)-1-(4-trifluoro-methyl-phenyl)-pyrrolidin-2-one]", "values": [{"measurement": "ICC of BPND", "setting": "CB1 receptor [1]; ACG", "value": 0.50}, {"measurement": "Median % diff (test–retest) of BPND", "setting": "CB1 receptor [1]; ACG", "value": 40.2, "unit": "%"}, {"measurement": "Median BPND", "setting": "CB1 receptor [1]; ACG", "value": 1.1}, {"measurement": "Mean %BS-CV of BPND", "setting": "CB1 receptor [1]; Accumbens", "value": 157.4, "unit": "%"}, {"measurement": "Median % diff (test–retest) of BPND", "setting": "CB1 receptor [1]; Accumbens", "value": 53.0, "unit": "%"}, {"measurement": "Median BPND", "setting": "CB1 receptor [1]; Accumbens", "value": 1.1}, {"measurement": "ICC of BPND", "setting": "CB1 receptor [1]; Caudate", "value": 0.06}, {"measurement": "Mean %BS-CV of BPND", "setting": "CB1 receptor [1]; Caudate", "value": 48.8, "unit": "%"}, {"measurement": "Median % diff (test–retest) of BPND", "setting": "CB1 receptor [1]; Caudate", "value": 30.5, "unit": "%"}, {"measurement": "Median BPND", "setting": "CB1 receptor [1]; Caudate", "value": 0.9}, {"measurement": "Mean %BS-CV of BPND", "setting": "CB1 receptor [1]; Hippocampus", "value": 125.2, "unit": "%"}, {"measurement": "Median % diff (test–retest) of BPND", "setting": "CB1 receptor [1]; Hippocampus", "value": 54.6, "unit": "%"}, {"measurement": "Median BPND", "setting": "CB1 receptor [1]; Hippocampus", "value": 1.0}, {"measurement": "Mean %BS-CV of BPND", "setting": "CB1 receptor [1]; IFG", "value": 29.4, "unit": "%"}, {"measurement": "Median % diff (test–retest) of BPND", "setting": "CB1 receptor [1]; IFG", "value": 16.0, "unit": "%"}, {"measurement": "Median BPND", "setting": "CB1 receptor [1]; IFG", "value": 0.9}, {"measurement": "ICC of BPND", "setting": "CB1 receptor [1]; Pallidum", "value": 0.27}, {"measurement": "Mean %BS-CV of BPND", "setting": "CB1 receptor [1]; Pallidum", "value": 25.1, "unit": "%"}, {"measurement": "Median % diff (test–retest) of BPND", "setting": "CB1 receptor [1]; Pallidum", "value": 9.4, "unit": "%"}, {"measurement": "Median BPND", "setting": "CB1 receptor [1]; Pallidum", "value": 1.1}, {"measurement": "Median % diff (test–retest) of BPND, mean (SD) across regions", "setting": "CB1 receptor [1]; 7 ROIs", "value": "35.1 (17.4) % and 35.1 ± 17.4%"}, {"measurement": "ICC of BPND", "setting": "CB1 receptor [1]; Thalamus", "value": 0.19}, {"measurement": "Mean %BS-CV of BPND", "setting": "CB1 receptor [1]; Thalamus", "value": 108.2, "unit": "%"}, {"measurement": "Median % diff (test–retest) of BPND", "setting": "CB1 receptor [1]; Thalamus", "value": 42.3, "unit": "%"}, {"measurement": "Median BPND", "setting": "CB1 receptor [1]; Thalamus", "value": 1.0}, {"measurement": "Ratio pallidum/pons of VT", "setting": "CB1 receptor [2]", "value": 2.6}, {"measurement": "Median % diff (test–retest) of VT, mean (SD) across regions", "setting": "CB1 receptor [2]; 8 ROIs", "value": "15.5 (6.0) % and 15.5 ± 5.9%"}, {"measurement": "ICC of VT", "setting": "CB1 receptor [2]; ACG", "value": 0.74}, {"measurement": "Mean BS % CV of VT", "setting": "CB1 receptor [2]; ACG", "value": 35.0, "unit": "%"}, {"measurement": "Median % diff (test–retest) of VT", "setting": "CB1 receptor [2]; ACG", "value": 12.4, "unit": "%"}, {"measurement": "ICC of VT", "setting": "CB1 receptor [2]; Accumbens", "value": 0.80}, {"measurement": "Mean BS % CV of VT", "setting": "CB1 receptor [2]; Accumbens", "value": 35.2, "unit": "%"}, {"measurement": "Median % diff (test–retest) of VT", "setting": "CB1 receptor [2]; Accumbens", "value": 15.1, "unit": "%"}, {"measurement": "ICC of VT", "setting": "CB1 receptor [2]; Caudate", "value": 0.74}, {"measurement": "Mean BS % CV of VT", "setting": "CB1 receptor [2]; Caudate", "value": 44.2, "unit": "%"}, {"measurement": "Median % diff (test–retest) of VT", "setting": "CB1 receptor [2]; Caudate", "value": 13.6, "unit": "%"}, {"measurement": "VT median", "setting": "CB1 receptor [2]; Caudate", "value": 13.0}, {"measurement": "ICC of VT", "setting": "CB1 receptor [2]; Hippocampus", "value": 0.87}, {"measurement": "Mean BS % CV of VT", "setting": "CB1 receptor [2]; Hippocampus", "value": 34.1, "unit": "%"}, {"measurement": "Median % diff (test–retest) of VT", "setting": "CB1 receptor [2]; Hippocampus", "value": 10.9, "unit": "%"}, {"measurement": "ICC of VT", "setting": "CB1 receptor [2]; IFG", "value": 0.71}, {"measurement": "Mean BS % CV of VT", "setting": "CB1 receptor [2]; IFG", "value": 39.0, "unit": "%"}, {"measurement": "Median % diff (test–retest) of VT", "setting": "CB1 receptor [2]; IFG", "value": 13.3, "unit": "%"}, {"measurement": "ICC of VT", "setting": "CB1 receptor [2]; Pallidum", "value": 0.85}, {"measurement": "Mean BS % CV of VT", "setting": "CB1 receptor [2]; Pallidum", "value": 35.5, "unit": "%"}, {"measurement": "Median % diff (test–retest) of VT", "setting": "CB1 receptor [2]; Pallidum", "value": 9.4, "unit": "%"}, {"measurement": "ICC of VT", "setting": "CB1 receptor [2]; Pons", "value": 0.67}, {"measurement": "Mean BS % CV of VT", "setting": "CB1 receptor [2]; Pons", "value": 35.5, "unit": "%"}, {"measurement": "Median % diff (test–retest) of VT", "setting": "CB1 receptor [2]; Pons", "value": 24.8, "unit": "%"}, {"measurement": "ICC of VT", "setting": "CB1 receptor [2]; Thalamus", "value": 0.70}, {"measurement": "Mean BS % CV of VT", "setting": "CB1 receptor [2]; Thalamus", "value": 39.4, "unit": "%"}, {"measurement": "Median % diff (test–retest) of VT", "setting": "CB1 receptor [2]; Thalamus", "value": 24.7, "unit": "%"}, {"measurement": "Ratio pallidum/pons of VT", "setting": "CB1 receptor [3]", "value": 3.6}, {"measurement": "Mean BS % CV of VT, mean (SD) across regions", "setting": "CB1 receptor [3]; 8 ROIs", "value": "45% and 44.5 (7.9) % and 44.5 ± 7.9%"}, {"measurement": "Median % diff (test–retest) of VT, mean (SD) across regions", "setting": "CB1 receptor [3]; 8 ROIs", "value": "19.7 (8.7) % and 19.7 ± 8.7%"}, {"measurement": "ICC of VT", "setting": "CB1 receptor [3]; ACG", "value": 0.76}, {"measurement": "Mean BS % CV of VT", "setting": "CB1 receptor [3]; ACG", "value": 47.4, "unit": "%"}, {"measurement": "Median % diff (test–retest) of VT", "setting": "CB1 receptor [3]; ACG", "value": 27.8, "unit": "%"}, {"measurement": "ICC of VT", "setting": "CB1 receptor [3]; Accumbens", "value": 0.69}, {"measurement": "Mean BS % CV of VT", "setting": "CB1 receptor [3]; Accumbens", "value": 53.7, "unit": "%"}, {"measurement": "Median % diff (test–retest) of VT", "setting": "CB1 receptor [3]; Accumbens", "value": 35.8, "unit": "%"}, {"measurement": "VT median", "setting": "CB1 receptor [3]; Accumbens", "value": 8.4}, {"measurement": "ICC of VT", "setting": "CB1 receptor [3]; Caudate", "value": 0.85}, {"measurement": "Mean BS % CV of VT", "setting": "CB1 receptor [3]; Caudate", "value": 48.0, "unit": "%"}, {"measurement": "Median % diff (test–retest) of VT", "setting": "CB1 receptor [3]; Caudate", "value": 19.7, "unit": "%"}, {"measurement": "VT median", "setting": "CB1 receptor [3]; Caudate", "value": 7.4}, {"measurement": "ICC of VT", "setting": "CB1 receptor [3]; Hippocampus", "value": 0.88}, {"measurement": "Mean BS % CV of VT", "setting": "CB1 receptor [3]; Hippocampus", "value": 50.4, "unit": "%"}, {"measurement": "Median % diff (test–retest) of VT", "setting": "CB1 receptor [3]; Hippocampus", "value": 14.8, "unit": "%"}, {"measurement": "ICC of VT", "setting": "CB1 receptor [3]; IFG", "value": 0.83}, {"measurement": "Mean BS % CV of VT", "setting": "CB1 receptor [3]; IFG", "value": 42.1, "unit": "%"}, {"measurement": "Median % diff (test–retest) of VT", "setting": "CB1 receptor [3]; IFG", "value": 18.1, "unit": "%"}, {"measurement": "VT median", "setting": "CB1 receptor [3]; IFG", "value": 8.8}, {"measurement": "ICC of VT", "setting": "CB1 receptor [3]; Pallidum", "value": 0.70}, {"measurement": "Mean BS % CV of VT", "setting": "CB1 receptor [3]; Pallidum", "value": 48.1, "unit": "%"}, {"measurement": "Median % diff (test–retest) of VT", "setting": "CB1 receptor [3]; Pallidum", "value": 20.6, "unit": "%"}, {"measurement": "ICC of VT", "setting": "CB1 receptor [3]; Pons", "value": 0.95}, {"measurement": "Mean BS % CV of VT", "setting": "CB1 receptor [3]; Pons", "value": 30.2, "unit": "%"}, {"measurement": "Median % diff (test–retest) of VT", "setting": "CB1 receptor [3]; Pons", "value": 8.3, "unit": "%"}, {"measurement": "ICC of VT", "setting": "CB1 receptor [3]; Thalamus", "value": 0.89}, {"measurement": "Mean BS % CV of VT", "setting": "CB1 receptor [3]; Thalamus", "value": 35.9, "unit": "%"}, {"measurement": "Median % diff (test–retest) of VT", "setting": "CB1 receptor [3]; Thalamus", "value": 12.6, "unit": "%"}]}]}
